Rows were chosen to be rich in hits. Some 1.8% of all compounds tested hit in one or more screens of this group.
SIRT5 inh: blocks human SIRT5 desuccinylation of peptide | inhibition, % at 15 µM | AID 652115 | actives 1.1% (n = 330,000) | Purified SirT5, succinyl-peptide AMC, trypsin-coupled fluorescence; in the data active = inhibition above about 15%; inconclusive = no clear call, values can overlap the other calls
AF4-AF9 inh: inhibitors of human MLL-AF4/AF9 interaction | inhibition, % at 10 µM | P42568 | actives 0.47% (n = 350,000) | AlphaScreen, biotin-AF4 peptide binding to FLAG-AF9 | AID 651704;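 active = every replicate reaching a set inhibition limit, whatever the replicate mean, cut at about 25% in these data; inconclusive = mean inhibition reaches that limit but some replicates miss it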;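 note: 0% = plate neutral control median and 100% = total signal loss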
E-selectin induc: induces E-selectin expression in human endothelial cells | P16581 | HUVEC E-selectin immunofluorescence imaging; normalized: neutral wells 0, TNF-alpha wells 100 | activation, % at 7.58 µM | actives 0.37% (n = 260,000) | AID 686992;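 active = mean E-selectin-positive cell signal at least 10% of the positive control, reached in at least 60% of replicates, without over 20% cell loss; inconclusive = no rule given, readout overlaps actives, possibly toxicity-flagged; inactive = the rest, including those meeting only one limit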
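Assay system: HUVEC, human umbilical vein endothelial cells / Amount: 3,000 HUVEC/well / Controls: TNF-alpha positive control, DMSO neutral control / Compound dosing: single concentration / Medium: EGM-2 over gelatin coat / Evaluation: percent E-selectin-positive cells / Signal: immunofluorescence imaging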
UUG fidelity: modulators of yeast start codon fidelity, primary screen, whole organism, S. cerevisiae, single point, plate reader; S. cerevisiae UUG-firefly luciferase reporter, luminescence/redox ratio; activity score, % at 18.7 µM; 0.13% of 350,000 active; AID 602363, 2012;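 active = replicate mean at a twofold rise or more, about +100% in these data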;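 also: firefly luciferase made from a UUG start codon reports start codon fidelity; reporter light over untreated wells divided by growth signal over untreated wells; some hits fall short of that in this replicate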
RAD52 anneal inh: inhibitors of human RAD52 DNA annealing; AID 651710; actives 0.46% (n = 360,000); inhibition, % at 18.7 µM; P43351; recombinant RAD52 DNA annealing, FRET fluorescence;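 active = every replicate showing at least 50% inhibition; inconclusive = mean inhibition at least 50% but not in every replicate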
RAD54 branch: inhibitors of human RAD54 branch migration; AID 602329; inhibition, % at 10.4 µM; actives 0.14% (n = 360,000); RAD54 Holliday junction branch migration, FAM/BHQ fluorescence;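 active = mean normalized replicate activity at least 40 and at least half of replicates scoring 40 or more; inconclusive = only one of the two criteria met; inactive = mean below 40 and under half of replicates reaching 40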;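 note: 0% = median of neutral control wells and 100% = median of positive control wells; inhibitors cause a drop in the FAM fluorescence signal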
The depositor's hits bear a star; ? = inconclusive; . = not tested or not shown.

| nr | molecule | SIRT5 inh | AF4-AF9 inh | E-selectin induc | UUG fidelity | RAD52 anneal inh | RAD54 branch |
| --- | --- | --- | --- | --- | --- | --- | --- |
| 1 | c1ccc(CC[C@@H]2CC[C@@H](CCc3ccccc3)N2)cc1 | . | 2 | 0 | -14 | 3 | 9 |
| 2 | c1ccc(CCC2Cc3ccccc3N2)cc1 (stereo not given) | 15* | . | 0 | -15 | -32 | -4 |
| 3 | C/C=C/c1cnc2c(c1)C(=O)N([C@@H](C)CO)C[C@H](C)[C@@H](CN(C)C(=O)c1ccc3c(c1)OCO3)O2 | -4 | 0 | 1 | 2 | -1 | 11 |
| 4 | C[C@H](CO)N1C[C@H](C)[C@H](CN(C)S(=O)(=O)c2cn(C)cn2)Oc2ccc(NC(=O)C3CC3)cc2CC1=O | -1 | -1 | 0 | 7 | -7 | 1 |
| 5 | C[C@@H]1CN([C@H](C)CO)C(=O)Cc2cc(NS(C)(=O)=O)ccc2O[C@H]1CN(C)S(=O)(=O)c1cn(C)cn1 | . | . | 389* | 0 | . | 3 |
| 6 | C[C@H](CO)N1C[C@H](C)[C@@H](CN(C)S(=O)(=O)c2cn(C)cn2)Oc2ccc(NC(=O)C3CC3)cc2CC1=O | 16* | -1 | 0 | 6 | 6 | 0 |
| 7 | C[C@H]1CN([C@@H](C)CO)C(=O)c2cc(NC(=O)C3CC3)ccc2O[C@H]1CN(C)S(=O)(=O)c1cn(C)cn1 | 29* | -2 | 0 | -3 | -2 | 4 |
| 8 | C[C@H]1CN([C@@H](C)CO)C(=O)Cc2cc(NS(C)(=O)=O)ccc2O[C@H]1CN(C)S(=O)(=O)c1cn(C)cn1 | . | . | ? | 4 | . | 11 |
| 9 | C[C@H](CO)N1C[C@H](C)[C@H](CN(C)Cc2ccc(Cl)c(Cl)c2)Oc2c(NS(=O)(=O)c3cccs3)cccc2C1=O | 4 | 1 | . | 11 | -84 | -18 |
| 10 | N#C[C@@H]1[C@H](c2ccc(C3=CCCCC3)cc2)[C@H](CO)N1C(=O)NC1CCCCC1 | 1 | 0 | 0 | -1 | -130 | -17 |
| 11 | Cc1ccc(NC(=O)NCCN2CCCCC2)cc1Cl | -3 | 26* | 0 | -13 | 1 | -3 |
| 12 | COc1ccc(NC(=O)NCCN2CCN(c3cc(OC)ccc3OC)CC2)cc1 | 28* | 0 | . | -9 | -10 | 6 |
| 13 | O=C(Nc1ccc(CN2CCOCC2)cc1)c1cc(Br)ccc1Cl | -2 | 3 | 1 | -7 | -21 | 5 |
| 14 | O=C(Nc1ccc(CN2CCOCC2)cc1)c1ccc(Cl)cc1Cl | 18* | -7 | . | 0 | -7 | -4 |
| 15 | Cc1ccc(NC(=O)CN2CCOCC2)cc1Cl | 25* | -2 | 46* | -16 | -22 | 5 |
| 16 | CCc1ccc(N2CCN(CCNC(=O)Nc3ccc(OC)cc3)CC2)cc1 | -2 | -15 | . | 4 | -9 | 0 |
| 17 | COc1ccc(NC(=O)N(C)C[C@@H]2Oc3ccc(NS(=O)(=O)c4ccc(C)cc4)cc3C(=O)N([C@@H](C)CO)C[C@H]2C)cc1 | . | . | 0 | . | . | . |
| 18 | CC(C)NC(=O)N(C)C[C@H]1Oc2ccc(NC(=O)Cc3ccccc3)cc2C(=O)N([C@@H](C)CO)C[C@@H]1C | -3 | -2 | . | 11 | -2 | 5 |
| 19 | CC1(C)C[C@@H]2C[C@@](C)(CN2C(=O)c2ccccc2)C1 | 1 | 0 | . | -3 | 6 | -6 |
| 20 | CC1(C)CC2CC(C)(CN2C(=O)c2cc(-c3ccccc3O)on2)C1 (stereo not given) | 16* | 0 | 0 | -13 | -13 | 0 |
| 21 | CC1(C)CC2CC(C)(CN2C(=O)c2ccc([N+](=O)[O-])cc2)C1 (stereo not given) | 21* | 1 | 0 | . | -16 | . |
| 22 | O=C(C[C@@H]1CC[C@H](NC(=O)c2cccc(F)c2)[C@@H](CO)O1)Nc1nccs1 | -2 | -1 | 1 | -10 | -7 | 3 |
| 23 | CCN1CCSc2ccc(C(=O)NCc3ccccc3C)cc21 | 7 | 49* | 0 | -1 | -16 | 15 |
| 24 | CCN1CCSc2ccc(C(=O)NCc3ccccc3F)cc21 | -9 | 25* | 0 | 1 | -18 | -7 |
| 25 | COc1cccc(CN2CC3(CCN(Cc4ccccn4)CC3)c3c([nH]c4cc(OC)ccc34)[C@H]2CO)c1 | -3 | 7 | -1 | . | 0 | . |
| 26 | Oc1cc(NCCc2cccnc2)cc2cccnc12 | -5 | ? | 0 | -27 | 8 | 2 |
| 27 | Oc1cc(Nc2ccncc2)cc2cccnc12 | . | 70* | 0 | -29 | -39 | 11 |
| 28 | Oc1cc(Nc2cccnc2)cc2cccnc12 | 2 | 39* | 0 | -28 | -26 | 2 |
| 29 | N#Cc1nc(COc2ccccc2Cl)oc1N1CCCC1 | 1 | 26* | 0 | . | -19 | . |
| 30 | N#Cc1nc(COc2ccccc2Cl)oc1N1CCCCCC1 | 0 | 9 | -1 | -3 | -6 | 4 |
| 31 | COc1ccc(NC(=O)N(C)C[C@H]2Oc3ccc(NS(=O)(=O)c4ccccc4)cc3CC(=O)N([C@@H](C)CO)C[C@H]2C)cc1 | 5 | -1 | 0 | . | 5 | . |
| 32 | O=C(c1cccnc1)N1CCCCN2[C@H](CO)[C@H](c3ccc(C#Cc4ccccc4)cc3)[C@H]2C1 | . | -1 | . | -3 | . | 1 |

Profiles from above.
Listed for C[C@H](CO)N1C[C@H](C)[C@H](CN(C)S(=O)(=O)c2cn(C)cn2)Oc2ccc(NC(=O)C3CC3)cc2CC1=O = SIRT5 inh: -1; AF4-AF9 inh: -1; E-selectin induc: 0; UUG fidelity: 7; RAD52 anneal inh: -7; RAD54 branch: 1
Listed for O=C(Nc1ccc(CN2CCOCC2)cc1)c1cc(Br)ccc1Cl = SIRT5 inh: -2; AF4-AF9 inh: 3; E-selectin induc: 1; UUG fidelity: -7; RAD52 anneal inh: -21; RAD54 branch: 5
Listed for CCN1CCSc2ccc(C(=O)NCc3ccccc3C)cc21 = SIRT5 inh: 7; AF4-AF9 inh: 49*; E-selectin induc: 0; UUG fidelity: -1; RAD52 anneal inh: -16; RAD54 branch: 15

Next entries follow:
| nr | molecule | SIRT5 inh | AF4-AF9 inh | E-selectin induc | UUG fidelity | RAD52 anneal inh | RAD54 branch |
| --- | --- | --- | --- | --- | --- | --- | --- |
| 33 | O=C(CCl)Nc1ccc(N2CCCCCC2)cc1 | 1 | 51* | . | -6 | 41 | 12 |
| 34 | CCC(=O)Nc1ccc(N2CCCCC2)cc1 | . | . | . | -17 | . | 6 |
| 35 | Cc1ccc(S(=O)(=O)Nc2ccc3c(c2)CC(=O)N([C@H](C)CO)C[C@H](C)[C@@H](CN(C)S(=O)(=O)c2c(C)noc2C)O3)cc1 | 16* | 2 | 0 | 23 | 10 | 3 |
| 36 | COc1ccc(S(=O)(=O)N(C)C[C@@H]2Oc3ccc(NS(=O)(=O)c4ccc(C)cc4)cc3CC(=O)N([C@H](C)CO)C[C@@H]2C)cc1 | . | . | -1 | -2 | . | -4 |
| 37 | COc1ccc(S(=O)(=O)Nc2ccc3c(c2)CC(=O)N([C@@H](C)CO)C[C@@H](C)[C@@H](CN(C)S(=O)(=O)c2ccccc2)O3)cc1 | . | . | 0 | -11 | . | -4 |
| 38 | COc1ccc(S(=O)(=O)Nc2ccc3c(c2)CC(=O)N([C@@H](C)CO)C[C@@H](C)[C@H](CN(C)S(=O)(=O)c2ccc(C)cc2)O3)cc1 | 19* | 1 | 0 | -5 | 19 | 2 |
| 39 | COc1ccc(S(=O)(=O)N(C)C[C@H]2Oc3ccc(NS(=O)(=O)c4ccccc4)cc3CC(=O)N([C@H](C)CO)C[C@@H]2C)cc1 | 17* | -1 | 0 | -5 | -16 | -9 |
| 40 | CCOC(=O)/C(C#N)=C\N(C)C | . | . | . | -12 | . | -1 |
| 41 | CCc1c(C)nn(C(=O)/C(C#N)=C\N(C)C)c1C | 16* | -2 | 3 | . | -8 | . |
| 42 | COCCNC(=O)c1onc(CSc2cccc(OC)c2)c1C(=O)NCCOC | 22* | -4 | 1 | -17 | -16 | -1 |
| 43 | CC(Sc1nc(-c2ccccc2)cc(C(F)(F)F)n1)C(=O)N1CCOCC1 (stereo not given) | . | . | . | 3 | . | 5 |
| 44 | CC(Sc1nc(-c2ccccc2)cc(C(F)(F)F)n1)C(=O)N1CCCC1 (stereo not given) | 0 | 49* | 3 | -24 | -3 | 2 |
| 45 | C[C@@H]1CN([C@H](C)CO)C(=O)CCCn2cc(nn2)CO[C@H]1CN(C)Cc1ccccc1C(=O)O | -2 | -1 | 0 | 5 | 2 | 0 |

Screening data as filed in PubChem BioAssay.
